The values below come from patent US11467161B2, “Biomarkers of therapeutic responsiveness” (Meso Scale Technologies, LLC., priority 2013, dated 2022).

In this experiment the test system is SKMEL5 (active GSK3beta) xenograft. Briefly: Biomarker levels in SKMEL5 GSK3β+ (active GSK3beta) melanoma xenograft tumor extracts (MSD multiplex immunoassay). The conditions noted are these: SKMEL5 GSK3β+ tumor extract, sorafenib (+), mean. The class given is in vivo, mice. As to the method: A panel of biomarkers was measured in Melanoma and RCC xenograft tissue extracts from mice, described in Table 4. Xenografts were generated using the listed melanoma and RCC cell lines, and tumors harvested and extracted following the indicated treatments. SKMEL5 cells were used with or without transfection to express constitutively active GSK3β. A375 cells were used with or without transfection to express GSK3β specific shRNA under a doxycycline-controlled promoter.
Multiplex immunoassay kits were used for detection of total and/or phosphorylated biomarkers (supplied by Meso Scale Discovery, a division of Meso Scale Diagnostics, LLC, Rockville, Md.). Levels of each biomarker were determined by calibration of the assays with were either purified calibrator proteins or using control cell lysates from appropriately treated cultured cell lines (e.g., cells subjected to conditions known to induce or reduce levels of a specific biomarker). Calibration curves were derived by testing serial dilutions of the calibrator lysates or purified proteins. Levels of biomarkers in test samples were back-calculated from the calibration curves and were expressed in terms of wt. (or arbitrary Units for phospho-protein markers) of protein per weight of tissue extract (for purified calibrators) or in terms of weight of crude control lysate protein per well (for lysate calibrators). […]

`CNC(=O)c1cc(Oc2ccc(NC(=O)Nc3ccc(Cl)c(C(F)(F)F)c3)cc2)ccn1` [sorafenib] came in with a Wnt3A of 11.4 pg/ug pr.
